The list shows a part of the results, in another mix than the full data. Calls of active or inactive are those of the source.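 How the source made its calls: active means response, share of CD8 T cells binding vesicles, and their 90th percentile fluorescence all below set limits (cut at about 80% in these data, passing the limit was not always enough); inactive means the rest, inconclusive results apart.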
Test: murine CD8 T cell vesicle adhesion modulation – mouse 2C CD8+ T cells, flow cytometry, primary screen (AID 2052);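 further: values below 100% mean blocked vesicle binding to the CD8+ T cells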
Conditions: 2C CD8+ T cell-vesicle binding, at 7 µM, hits give low values
How it was run: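 Incubation: binding step 1.5 h, 37 °C, antibody labelling 20 min, ice; system: murine 2C transgenic CD8+ T lymphocytes; technique: cytometric PE anti-B7-1 and Alexa647 anti-CD8 signals after 1% paraformaldehyde fixation; also added: QL9-charged Drosophila Ld/ICAM-1/B7-1 vesicles; control set: naked versus QL9-loaded vesicles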

SMILES | response (vesicle binding)
CC(=O)NC(SC(=S)N(C)C)C(Cl)(Cl)Cl (configuration not stated) | inactive: 343%
O=[N+]([O-])c1ccc(OP2(=O)COCCO2)cc1 (configuration not stated) | inactive: 214%
O=[N+]([O-])c1ncn(CCn2cnc([N+](=O)[O-])n2)n1 | inactive: 373%
O=[N+]([O-])c1ccc(O)c(/C=N/Nc2ccc([N+](=O)[O-])cc2[N+](=O)[O-])c1 | inactive: 180%
O=[N+]([O-])c1cc([N+](=O)[O-])c(NCC2CCS(=O)(=O)C2)c([N+](=O)[O-])c1 (configuration not stated) | inactive: 465%
O=[As](O)(c1ccccc1)c1ccc(O)cc1 | inactive: 838%
C[C@H]1OP(=O)(Oc2ccccc2)[C@H](O)[C@H](O)[C@H]1N=[N+]=[N-] (some centres not stated) | inactive: 583%
O=P(Nc1nc2ccccc2s1)(c1ccccc1)c1ccccc1 | inactive: 49.3%
CN(C)CCOC(=O)C(O)(c1ccccc1)C1CCCCC1 (configuration not stated) | inactive: 950%
COc1ccc(NP(C)(=O)Oc2ccccc2OC)cc1 (configuration not stated) | inactive: 235%
COc1ccc(OP(C)(=O)Nc2cccc(Br)c2)cc1 (configuration not stated) | inactive: 367%
CN(C)C1(CNC(=O)c2ccc(Cl)c(S(N)(=O)=O)c2)CCCCC1 | inactive: 353%
O=P(Nc1ccccn1)(c1ccc(Br)cc1)c1ccc(Br)cc1 | inactive: 364%
Cc1ccccc1NP(C)(=O)Nc1ccccc1C | inactive: 405%
CP(=O)(Nc1ccc2c(c1)OCCO2)Oc1ccccc1 (configuration not stated) | inactive: 206%
CCOP(C)(=S)SCC(=O)NC(C)(CC)C(=O)O (configuration not stated) | inactive: 177%
c1nnnn1CCn1cnnn1 | inactive: 468%
CP(=O)(Nc1ccc(SC(F)(F)F)cc1)Oc1ccc(F)cc1 (configuration not stated) | inactive: 762%
O=P(Nc1nccs1)(c1ccccc1)c1ccccc1 | inactive: 218%
CC(C)C(=O)NC(Sc1ccccc1)C(Cl)(Cl)Cl (configuration not stated) | inactive: 128%
CC1(CBr)Cn2c(nc3ccccc3c2=O)S1 (configuration not stated) | inactive: 233%
Cc1nc2ccc3ccccc3c2s1.O=[N+]([O-])c1cc([N+](=O)[O-])c(O)c([N+](=O)[O-])c1 | inactive: 372%
O=[As](O)(c1ccccc1Br)c1ccccc1Br | inactive: 88.4%
CN(C(=O)Cc1ccc(Cl)c(Cl)c1)[C@@H]1CCCC[C@H]1N1CCCC1 | inactive: 535%

SMILES | response (vesicle binding)
CC(C)/C=N\N=C(\N)N[N+](=O)[O-] | inactive: 329%
COc1ccccc1CNC(=O)COC(=O)C(O)(c1ccccc1)c1ccccc1 | inactive: 755%
O=[N+]([O-])c1cc([N+](=O)[O-])c(-c2cnn(-c3ccccc3)c2)c([N+](=O)[O-])c1 | inactive: 840%
CC(C)(C)C(=O)NC(Sc1ncccn1)C(Cl)(Cl)Cl (configuration not stated) | inactive: 118%
Clc1n[nH]nc1-c1nn[nH][15n]1 | inactive: 345%
CCOP(=O)(Nc1ccc(C)cn1)OCC | inactive: 290%
CN(CCCl)Cc1cc(Cl)c(NC2=NCCN2)c(Cl)c1 | inactive: 0%
O=[N+]([O-])c1cc([N+](=O)[O-])c(-n2nnc3ccccc32)c([N+](=O)[O-])c1 | inactive: 249%
CCOP(=O)(NC(=NC(C)c1ccccc1)NC(C)c1ccccc1)OCC (configuration not stated) | inactive: 167%
CCC1=CC2Cc3nc4ccc(Cl)cc4c(N)c3C(C1)C2 (configuration not stated) | inactive: 723%
O=P1(Nc2ccccn2)COc2ccccc2OC1 | inactive: 326%
Cc1ccc(OCC(=O)OC2CN3CCC2CC3)cc1 (configuration not stated) | inactive: 267%
NS(=O)(=O)c1cccc(NC(=O)COC(=O)C(O)(c2ccccc2)c2ccccc2)c1 | inactive: 357%
O=P1(Nc2ccc(Br)cn2)COc2ccccc2OC1 | inactive: 256%
CCCOc1ccc(NP(C)(=O)Oc2ccc(Cl)cc2)cc1 (configuration not stated) | inactive: 265%
Nc1cccc([As](=O)(O)c2ccccc2)c1 | inactive: 288%
CP(=O)(Nc1ccc(SC(F)(F)F)cc1)Oc1ccccc1 (configuration not stated) | inactive: 194%
CN1CCCCC1COC(=O)C1(O)c2ccccc2CCc2ccccc21 (configuration not stated) | inactive: 367%
COc1ccccc1OP(C)(=O)Nc1c(C)cccc1C (configuration not stated) | inactive: 246%
O=P1(Nc2ncccn2)COc2ccccc2OC1 | inactive: 466%
O=C(/C=C/c1ccccc1)OC1CN2CCC1CC2 (configuration not stated) | inactive: 318%
CCOC(=O)C(CC)C1=NC(C)(C)Cc2ccccc21.O=[N+]([O-])c1cc([N+](=O)[O-])c(O)c([N+](=O)[O-])c1 (configuration not stated) | inactive: 178%
CC1=C2N=C(C=C3N=C(C(C)=C4[N-][C@@](C)([C@@H]5N=C1[C@](C)(CCC(=O)NC[C@@H](C)OP(=O)([O-])O[C@H]1[C@@H](O)[C@@H](n6cnc7cc(C)c(C)cc76)O[C@@H]1CO)[C@H]5CC(N)=O)[C@@](C)(CC(N)=O)[C@@H]4CCC(N)=O)[C@@](C)(CC(N)=O)[C@@H]3CCC(N)=O)C(C)(C)[C@@H]2CCC(N)=O.[C-]#N.[Co+3] | inactive: 741%
